Results on 16 molecules are retold here after patent publication US11702404B2, “GLP-1R modulating compounds” (priority 2019, dated 2023).

Chains of the proteins cited; added tags and fusions are not shown. Residues count along the entry.
UniProt P43220, 24-463 limits assumed: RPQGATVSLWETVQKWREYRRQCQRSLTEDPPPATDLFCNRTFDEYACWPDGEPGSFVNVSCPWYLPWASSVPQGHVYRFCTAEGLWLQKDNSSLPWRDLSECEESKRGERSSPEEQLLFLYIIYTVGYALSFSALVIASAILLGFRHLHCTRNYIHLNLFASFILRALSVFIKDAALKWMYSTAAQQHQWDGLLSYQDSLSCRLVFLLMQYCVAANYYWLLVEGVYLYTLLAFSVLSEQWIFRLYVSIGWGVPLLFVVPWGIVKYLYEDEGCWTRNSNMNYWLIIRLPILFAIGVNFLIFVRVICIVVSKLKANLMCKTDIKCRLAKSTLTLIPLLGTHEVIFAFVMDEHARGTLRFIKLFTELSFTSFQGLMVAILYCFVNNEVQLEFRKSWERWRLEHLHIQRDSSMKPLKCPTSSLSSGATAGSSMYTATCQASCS

In one data set the target is GLP-1R (Homo sapiens, UniProt P43220). Put plainly: GLP-1R activation: cAMP increase in CHO cells stably expressing GLP-1R. The format is cell-based. The conditions noted are these: 10 point dose response, 30 minutes incubation.
Data set [1] in a line: Microsomal stability, human liver microsomes (predicted hepatic clearance). The conditions noted are these: predicted from in vitro microsomal stability data.

This is a selection: effects in other tests are not listed, and their absence says nothing.

A word on the EC50: it is the concentration that produces a half-maximal response. Higher therefore signals weaker potency.

Turning to `O=C(O)c1ccc2nc(Cc3ccc(-c4ccc(F)c(OCc5ccc(Cl)cc5F)c4)cc3F)n(C[C@@H]3CCCN3)c2c1`, the half-maximal effective concentration (EC50) on GLP-1R worked out at 159 nM. For the same molecule, the “Predicted Hepatic Clearance (Pred. Cl.)” value in data set [1] was <1.83 mL/min/kg.
Taken in the same sequence, the figures for `CO[C@H]1CNC[C@H]1n1c(Cc2cc(F)c(-c3cccc(OCc4ccc(C#N)cc4F)n3)cc2F)nc2ccc(C(=O)O)cc21` were 2.65 nM and 1.83 mL/min/kg.
Molecule `CN(C)C1(Cn2c(Cc3ccc(-c4cccc(OCc5ccc(C#N)cc5F)n4)cc3F)nc3ccc(C(=O)O)cc32)CC1` had an EC50 on GLP-1R of 3.94 nM. In addition, in data set [1], the “Predicted Hepatic Clearance (Pred. Cl.)” value was 8.67 mL/min/kg.
For `N#Cc1ccc(COc2cccc(-c3cc(F)c(Cc4nc5ccc(C(=O)O)cc5n4CC45CC(CN4)C5)cc3F)n2)c(F)c1`, in that order: 27.3 nM and 1.83 mL/min/kg.
With `N#Cc1ccc(COc2cccc(-c3ccc(Cc4nc5ccc(C(=O)O)cc5n4C[C@H]4CCN4)c(F)c3)n2)c(F)c1`, the half-maximal effective concentration (EC50) at GLP-1R was found to be 88.7 nM. Further, the “Predicted Hepatic Clearance (Pred. Cl.)” value in data set [1] was <1.83 mL/min/kg.
As for `N#Cc1ccc(COc2cccc(-c3cc(F)c(Cc4nc5ccc(C(=O)O)cc5n4CCN4CCC4)cc3F)n2)c(F)c1`, at GLP-1R, the EC50 was found to be 2.59 nM. Moreover, the “Predicted Hepatic Clearance (Pred. Cl.)” value in data set [1] is <1.83 mL/min/kg.
Take `O=C(O)c1ccc2nc(Cc3ccc(-c4ccc(F)c(OCc5ccc(Cl)cc5F)c4)cc3F)n(CC3CCCN3)c2c1` (centres unmarked): at GLP-1R, the EC50 was 1610 nM. For the same molecule, the “Predicted Hepatic Clearance (Pred. Cl.)” value in data set [1] is <1.83 mL/min/kg.
Taken in the same sequence, the figures for `CNCCn1c(Cc2ccc(-c3ccc(F)c(OCc4ccc(Cl)cc4F)c3)cc2F)nc2ccc(C(=O)O)cc21` were 666 nM and <1.83 mL/min/kg.
On GLP-1R, `CC(C)(N)Cn1c(Cc2cc(F)c(-c3cccc(OCc4ccc(C#N)cc4F)n3)cc2F)nc2ccc(C(=O)O)cc21` yielded an EC50 of 2.56 nM. Moreover, in data set [1], the “Predicted Hepatic Clearance (Pred. Cl.)” value was 1.83 mL/min/kg.
`N#Cc1ccc(COc2cccc(-c3cc(F)c(Cc4nc5ccc(C(=O)O)cc5n4CC4(N)CC4)cc3F)n2)c(F)c1` yielded a 50% effective concentration (EC50) at GLP-1R of 0.8 nM. For the same molecule, in data set [1], the “Predicted Hepatic Clearance (Pred. Cl.)” value was 2.33 mL/min/kg.
Taken in the same sequence, the figures for `CO[C@@H]1CNC[C@@H]1n1c(Cc2cc(F)c(-c3cccc(OCc4ccc(C#N)cc4F)n3)cc2F)nc2ccc(C(=O)O)cc21` were 2.83 nM and 1.83 mL/min/kg.
For `N#Cc1ccc(COc2cccc(-c3cc(F)c(Cc4nc5ccc(C(=O)O)cc5n4CCN4CC(F)C4)cc3F)n2)c(F)c1`, in that order: 2.27 nM and 4.83 mL/min/kg.
Taken in the same sequence, the figures for `CN(C)CCn1c(Cc2ccc(-c3ccc(F)c(OCc4ccc(Cl)cc4F)c3)cc2F)nc2ccc(C(=O)O)cc21` were 146 nM and 5 mL/min/kg.
For the molecule `N#Cc1ccc(COc2cccc(-c3cc(F)c(Cc4nc5ccc(C(=O)O)cc5n4CCNC4CC4)cc3F)n2)c(F)c1`, the EC50 on GLP-1R came out at 2.09 nM. The “Predicted Hepatic Clearance (Pred. Cl.)” value in data set [1] was 4.33 mL/min/kg.
Taken in the same sequence, the figures for `CO[C@@H]1CNC[C@H]1n1c(Cc2cc(F)c(-c3cccc(OCc4ccc(C#N)cc4F)n3)cc2F)nc2ccc(C(=O)O)cc21` were 2.17 nM and 2.33 mL/min/kg.
Taken in the same sequence, the figures for `CN1CC[C@H]1Cn1c(Cc2ccc(-c3cccc(OCc4ccc(C#N)cc4F)n3)cc2F)nc2ccc(C(=O)O)cc21` were 14.4 nM and 2.83 mL/min/kg.
